Measurements reported in US20080171346A1.
Several values for one entry are separate records, joined by “and”; a condition that tells them apart may be missing. Equal values may be shown once.

Chains of the proteins cited; added tags and fusions are not shown.
UniProt P01870, whole entry: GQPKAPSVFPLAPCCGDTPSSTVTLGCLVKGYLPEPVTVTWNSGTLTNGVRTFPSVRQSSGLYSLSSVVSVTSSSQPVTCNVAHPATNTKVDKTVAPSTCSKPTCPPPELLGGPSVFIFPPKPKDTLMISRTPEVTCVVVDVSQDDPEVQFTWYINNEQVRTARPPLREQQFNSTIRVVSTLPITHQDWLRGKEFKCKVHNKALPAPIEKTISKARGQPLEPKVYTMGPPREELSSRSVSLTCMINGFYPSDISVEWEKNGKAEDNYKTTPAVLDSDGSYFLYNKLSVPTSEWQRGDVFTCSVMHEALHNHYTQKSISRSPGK

How the values were obtained:
Rabbit IgG (rabbit) [1] = target: Rabbit IgG (rabbit) (UniProt P01870); assay: QCM, acid treated S. aureus on MUA/scFv-RG3/IgG sensor (Bar A)
Rabbit IgG (rabbit) [2] = target: Rabbit IgG (rabbit) (UniProt P01870); assay: QCM, MUA/scFv-RG3/IgG sensor, untreated against acid treated bacteria
Rabbit IgG (rabbit) [3] = target: Rabbit IgG (rabbit) (UniProt P01870); assay: QCM, acid treated S. aureus on directly immobilised, random orientated rabbit IgG surface (Bar D)
Rabbit IgG (rabbit) [4] = target: Rabbit IgG (rabbit) (UniProt P01870); assay: QCM, untreated S. aureus on MUA/scFv-RG3/IgG sensor (Bar B)
Rabbit IgG (rabbit) [5] = target: Rabbit IgG (rabbit) (UniProt P01870); assay: QCM, protein A added to rabbit IgG held on MUA/scFv-RG3

| Substance | frequency change (Rabbit IgG (rabbit) [1]) | fold signal reduction against acid treated Staphylococcus aureus (Rabbit IgG (rabbit) [2]) [times] | frequency change (Rabbit IgG (rabbit) [3]) [Hz] | frequency change (Rabbit IgG (rabbit) [4]) [Hz] | fold increase of signal over randomly orientated rabbit IgG surface and protein A/IgG surface (Rabbit IgG (rabbit) [5]) [fold] | frequency change (signal response) (Rabbit IgG (rabbit) [5]) [Hz] |
| --- | --- | --- | --- | --- | --- | --- |
| protein A on the cell surface of Staphylococcus aureus (Cowan's serotype 1, ATCC 12598) (from UniProt P38507 37-477) | 230 Hz and 250 Hz | 6 | 39 | 44 | – | – |
| purified protein A (from UniProt P38507 37-477) | – | – | – | – | 7 | 47 |
